Experimental data as given in patent publication US20030186999A1, “Purine derivatives having, in particular, antiproliferative properties, and their biological uses” (CENTRE NATIONAL DE LA RECHERCHE SCIENTIFIGUE (C.N.R.S.), priority 1995, published 2003).

Protein sequences, listed by entry. Tags and fused reporters are not part of them. Lines headed by an entry give the natural chain unless they say otherwise; changes in a name come on top.
UniProt P11802: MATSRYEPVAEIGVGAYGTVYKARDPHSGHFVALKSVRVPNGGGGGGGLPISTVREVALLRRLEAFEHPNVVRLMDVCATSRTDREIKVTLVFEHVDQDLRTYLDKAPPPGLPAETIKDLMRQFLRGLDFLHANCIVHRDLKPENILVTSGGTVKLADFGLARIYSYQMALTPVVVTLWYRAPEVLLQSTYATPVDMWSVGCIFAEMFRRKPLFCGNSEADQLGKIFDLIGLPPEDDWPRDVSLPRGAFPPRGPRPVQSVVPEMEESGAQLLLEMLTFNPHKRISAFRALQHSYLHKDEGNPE

Target: T1, cdc4/cyclin D1 (Homo sapiens, UniProt P11802)
T1 construct: GST (N); made in house; host or cells: insect cells
Test: cdk4/cyclin D1 kinase, GST-retinoblastoma protein phosphorylation
Format: biochemical

Q: `Cn1cnc2c(NCc3ccccc3)nc(NCCO)nc21` [olomoucine, 2-(2-hydroxyethylamino)-6-benzylamino-9-methylpurine] was tested. Which IC50 did it give?
A: > 1000 µM
